# Tested on: O=NO
# Assay: cells, lysate or membranes
# Conditions: whole-cell uptake, non-induced cells (no IPTG), pH 9.6, 30 °C, light
substance,measurement,value
NitM (SynPCC7002_A0125) (Picosynechococcus sp. PCC 7002),Km,8 µM
